The structures appear in SMILES notation. The list shows a part of the results, in another mix than the full data. Active and inactive are the calls of the source. No stated cut-off is given here; in the data, active means inhibition above about 21%; inactive means the rest.

Protein sequences, listed by entry. Tags and fused reporters are not part of them.
UniProt Q96T88, whole entry: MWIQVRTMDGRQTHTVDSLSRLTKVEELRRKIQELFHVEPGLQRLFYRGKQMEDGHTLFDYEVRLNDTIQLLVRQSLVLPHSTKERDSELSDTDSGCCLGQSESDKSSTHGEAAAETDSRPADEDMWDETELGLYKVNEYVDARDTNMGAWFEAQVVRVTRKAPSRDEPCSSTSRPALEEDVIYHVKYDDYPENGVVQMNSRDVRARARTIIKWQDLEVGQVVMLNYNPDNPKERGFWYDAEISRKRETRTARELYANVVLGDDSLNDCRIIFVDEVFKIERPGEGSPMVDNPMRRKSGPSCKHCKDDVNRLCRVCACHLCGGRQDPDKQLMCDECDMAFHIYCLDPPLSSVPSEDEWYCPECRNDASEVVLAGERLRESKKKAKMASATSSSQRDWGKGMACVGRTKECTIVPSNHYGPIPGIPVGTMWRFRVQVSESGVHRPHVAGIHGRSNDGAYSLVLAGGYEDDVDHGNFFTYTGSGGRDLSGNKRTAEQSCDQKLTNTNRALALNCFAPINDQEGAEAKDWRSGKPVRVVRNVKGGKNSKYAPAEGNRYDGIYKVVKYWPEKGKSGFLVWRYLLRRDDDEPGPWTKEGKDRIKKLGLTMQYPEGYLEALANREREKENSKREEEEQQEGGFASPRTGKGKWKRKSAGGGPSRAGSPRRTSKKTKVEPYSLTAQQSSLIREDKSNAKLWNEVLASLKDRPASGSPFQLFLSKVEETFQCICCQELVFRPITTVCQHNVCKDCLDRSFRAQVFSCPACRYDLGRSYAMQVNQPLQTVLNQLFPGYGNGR

In the assay the target is E3 ubiquitin-protein ligase UHRF1 (Homo sapiens) (UniProt Q96T88). Briefly: UHRF1 methylated DNA binding inhibitors, primary screen, counter-screen for MBD2 inhibitor project, biochemical, TR-FRET, human UHRF1, single concentration (AID 687016).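 Further: UHRF1 SRA domain binding a hemimethylated CpG hairpin DNA probe; 0% = median of test compound wells and 100% = reference inhibitor.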 Conditions: UHRF1 binding to methylated oligo, at 4.4 µM, stronger effect = higher value. A general note: A counterscreen serves to expose hits that act by an unwanted route or on another target.
Regarding `CCOP(C)(=S)SCC(=O)NC(C)C(=O)O` (stereo unspecified), the inhibition (commonly the change of the read-out against control, counted positive when it falls) was inactive: 2.15%.

Turning to `Cc1cc(C)cc(OP(C)(=O)Nc2ccc(SC(F)(F)F)cc2)c1` (stereo unspecified), the inhibition is inactive: -1.49%. In the case of `CCc1ccc(OP(C)(=O)N2CCN(c3ccc([N+](=O)[O-])cc3)CC2)cc1` (stereo unspecified), the inhibition was inactive: 4.91%. In the case of `CP(=O)(NC(=O)Nc1ccccc1)Oc1ccccc1` (stereo unspecified), the inhibition is inactive: -1.71%.

For `CP(=O)(Oc1ccccc1)OC(c1ccccc1)C(F)(F)F` (stereo unspecified), the inhibition is inactive: -0.27%. As for `Cc1cccc(C)c1OP(C)(=O)Nc1ccc(SC(F)(F)F)cc1` (stereo unspecified), the figure is inactive: 2.62%; as for `CP(=O)(Nc1ccc(SC(F)(F)F)cc1)Oc1ccc(Cl)cc1` (stereo unspecified), inactive: -0.78%. With `CP(=O)(Nc1ccccc1Br)Oc1ccccc1` (stereo unspecified), the inhibition is inactive: 4.06%.

On to `COc1ccccc1OP(C)(=O)Nc1ccccc1` (stereo unspecified), for which the inhibition was inactive: -1.29%. As for `CP(=S)(Nn1cnnc1)Oc1ccccc1` (stereo unspecified), the inhibition is inactive: -4.46%.

In the case of `Cc1cc(C)cc(OP(C)(N)=O)c1` (stereo unspecified), the inhibition was inactive: 0.91%. As for `COc1ccc(OP(C)(=O)Nc2cccc(F)c2)cc1` (stereo unspecified), the figure is inactive: -0.34%; as for `COc1ccccc1OP(C)(=O)Nc1cc(Cl)ccc1C` (stereo unspecified), inactive: 0.55%. Under `Cc1ccc(NP(C)(=O)Oc2ccccc2)c(C)c1` (stereo unspecified) stands inactive: -1.41%. In the case of `COc1ccccc1OP(C)(=O)Nc1ccc(C)cc1` (stereo unspecified), the inhibition was inactive: 4.66%. Consider `CCOC(=O)c1ccc(NP(C)(=O)Oc2ccccc2)cc1` (stereo unspecified), for which the inhibition was inactive: -1.99%.

Turning to `O=[N+]([O-])c1ccc2c(c1)C=Nc1ccccc1O2`, the inhibition is inactive: -4.09%. With `Cc1cccc(C)c1OP(C)(N)=O` (stereo unspecified), the inhibition is inactive: -0.83%. As for `CC(C)(C)c1ccc(OP(C)(=O)Nc2ccc(SC(F)(F)F)cc2)cc1` (stereo unspecified), the inhibition was inactive: 1.57%. Under `O=[N+]([O-])c1cc([N+](=O)[O-])c(Nc2cccnc2)c([N+](=O)[O-])c1` stands inactive: -5.6%; under `COc1ccccc1-c1ccccn1.O=[N+]([O-])c1cc([N+](=O)[O-])c(O)c([N+](=O)[O-])c1`, inactive: -1.96%; under `CCN(CC)CCCOC(=O)C(O)(c1ccccc1)c1ccccc1`, inactive: 1.77%. Consider `Cc1ccc(C)c(NP(C)(=O)Oc2ccccc2)c1` (stereo unspecified), for which the inhibition is inactive: -1.25%. On to `CP(=O)(Nc1cccc(Br)c1)Oc1ccccc1` (stereo unspecified), for which the inhibition was inactive: 3.5%. For `Cc1cc(C)cc(OP(C)(=O)Nc2ccccn2)c1` (stereo unspecified), the inhibition was inactive: -1.1%. For `CCOC(=O)c1ccc(NP(C)(=O)Oc2cc(C)cc(C)c2)cc1` (stereo unspecified), the inhibition is inactive: 3.68%. As to `Cc1cc(C)cc(OP(C)(=O)Nc2ccc(C)cc2C)c1` (stereo unspecified), the inhibition was inactive: -0.61%. On to `COc1ccccc1OP(C)(=O)Nc1cccc(Br)c1` (stereo unspecified), for which the inhibition is inactive: -2.75%.

With `CC1=NCCc2c1[nH]c1ccccc21.O=[N+]([O-])c1cc([N+](=O)[O-])c(O)c([N+](=O)[O-])c1`, the inhibition was inactive: 2.46%. As for `O=C(O)c1cccc(Nc2c([N+](=O)[O-])cc([N+](=O)[O-])cc2[N+](=O)[O-])c1`, the figure is inactive: -0.06%. For `COc1ccc(-c2ccccn2)cc1.O=[N+]([O-])c1cc([N+](=O)[O-])c(O)c([N+](=O)[O-])c1`, the inhibition was inactive: 8.16%. On to `CP(=O)(Nc1ccc(SC(F)(F)F)cc1)Oc1ccccc1` (stereo unspecified), for which the inhibition was inactive: -0.39%. Under `CCCOc1ccc(NP(C)(=O)Oc2ccc(Cl)cc2)cc1` (stereo unspecified) stands inactive: 1.85%; under `COc1ccccc1OP(C)(=O)Nc1c(C)cccc1C` (stereo unspecified), inactive: -1.13%; under `CN1CCCCC1COC(=O)C1(O)c2ccccc2CCc2ccccc21` (stereo unspecified), inactive: -0.58%. As for `CCOC(=O)C(CC)C1=NC(C)(C)Cc2ccccc21.O=[N+]([O-])c1cc([N+](=O)[O-])c(O)c([N+](=O)[O-])c1` (stereo unspecified), the inhibition was inactive: -3.64%.

As to `O=[N+]([O-])c1cc([N+](=O)[O-])c(Nc2nnnn2CCO)c([N+](=O)[O-])c1`, the inhibition was inactive: -2.91%. Take `Cc1nc2ccc3ccccc3c2s1.O=[N+]([O-])c1cc([N+](=O)[O-])c(O)c([N+](=O)[O-])c1`: the inhibition is inactive: 4%. As for `O=[N+]([O-])c1cc([N+](=O)[O-])c(-c2cnn(-c3ccccc3)c2)c([N+](=O)[O-])c1`, the figure is inactive: 2.57%; as for `CN(Cc1cccnc1)C(=O)COc1ccc(Cl)c(Cl)c1.O=[N+]([O-])c1cc([N+](=O)[O-])c(O)c([N+](=O)[O-])c1`, inactive: -2.24%. For `O=[N+]([O-])c1cc([N+](=O)[O-])c(-n2nnc3ccccc32)c([N+](=O)[O-])c1`, the inhibition is inactive: 4.92%.
